Laboratory results published in ChEMBL document CHEMBL1150353, “Development of novel antiatherogenic biaryls: design, synthesis, and reactivity” (2008).

Columns and labels:
Format in all cases: functional, cell-based
[1] = system: U-937; experiment: Inhibition of foam cell formation in LDL exposed human U937 cells assessed as accumulation of red O-stained lipid droplets at 10 uM for 14 hrs by nile red fluorescence assay
Outline: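 U937 grown in RPMI with 10% FCS were used at subconfluence. They were incubated for 14 h in fresh RPMI containing native LDL (100 µg/mL), 1 µM CuSO₄ and agent (10 µM). Cells were fixed in 10% paraformaldehyde, stained with 0.5 µg/mL Nile Red, scraped and read fluorometrically (ex 460/em 550 nm). Parallel slides were stained with oil red O and hematoxylin and examined microscopically. Data are the mean of three experiments.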

[2] = system: HMEC-1; experiment: Cytoprotective activity against ultraviolet irradiation oxidized LDL and 4-hydroxynonenal-induced cytotoxicity in HMEC1 cells assessed as cell survival at 10 uM after 24 hrs relative to control; details: Homo sapiens
Outline: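 HMEC-1 were exposed to 4-HNE added directly to the medium, or to UV-oxidized LDL. For the oxidized LDL, LDL at 2 mg apoB/mL with 2 µmol/L CuSO₄ was irradiated with UV-C (254 nm) for 2 h and then added at 200 µg apoB/mL. Compounds were present during exposure. Viability was read by MTT after 24 h, as % of cells in LDL-free medium. Each value is the mean of four determinations.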

[3] = system: HMEC-1; experiment: Inhibition of 4-hydroxynonenal-induced carbonyl stress in HMEC1 cells assessed as prevention of increase in carbonylated protein level at 10 uM relative to control; details: Homo sapiens
Outline: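 HMEC-1 were incubated overnight with 50 µM 4-HNE in FCS-free RPMI-1640 with the compound, then washed, scraped and pelleted. Protein was derivatized for 1 h at room temperature with 0.1% DNPH in 2 M HCl, precipitated with TCA, and washed with ethanol/ethyl acetate. It was dissolved in 8 M guanidine buffer (pH 7.4) and read at 365 nm. Results are % of unstimulated control, mean of four experiments.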

Measured: Activity

CCOP(=O)(F)/C=C/c1cc(OC)c(O)c(-c2cc(/C=N/NC(=O)c3ccncc3)cc(OC)c2O)c1 (stereo not drawn)
inactive: [1] | [2] | [3]

Some of these compounds have results that are not shown, active ones among them. Activity calls are given as the source filed them.
